Experiment: High throughput aqueous solubility in phosphate buffer pH 6.5
Format: physicochemical
Method: Examples were tested for its solubility in aqueous media (pH 6.5). Examples were synthesized one or more times in accordance with the above-described protocols. When synthesized more than once, data from solubility assays represent average values or median values calculated utilizing data sets obtained from testing of one or more synthetic batch.
The high throughput screening method to determine aqueous drug solubility is based on Thomas Onofrey and Greg Kazan, Performance and correlation of a 96-well high throughput screening method to determine aqueous drug solubility, Millipore Corporation Application Note, 2003; Lit. No. AN1731EN00.
The assay was run in a 96-well plate format. Each well was filled with an individual compound.
All pipetting steps were performed using a robot platform.
100 μl of a 10 mmolar solution of drug in DMSO were concentrated by vacuum centrifugation and resolved in 10 μl DMSO. 990 μl phosphate buffer pH 6.5 were added. The content of DMSO amounts to 1%. The multititer plate was put on a shaker and mixed for 24 hrs at room temperature. 150 μl of the suspension were transferred to a filtration plate. […] Filtrate and calibration plates were quantified by HPLC-MS/MS. […]
The areas of sample- and calibration injections were determined by using mass spectrometry software (AB SCIEX: Discovery Quant 2.1.3. and Analyst 1.6.1). […]

{[(3R,5R)-5-Hydroxytetrahydrofuran-3-yl]oxy}-5-(5-methyl-1,3-thiazol-2-yl)-N-{(1R)-1-[2-(trifluoromethyl)pyrimidin-5-yl]ethyl}benzamide and {[(3R,5S)-5-hydroxytetrahydrofuran-3-yl]oxy}-5-(5-methyl-1,3-thiazol-2-yl)-N-{(1R)-1-[2-(trifluoromethyl)pyrimidin-5-yl]ethyl}benzamide [Example 1]
solubility compared to example 11 of WO2016/091776 A1 (aqueous, pH 6.5): significantly improved solubility
Aqueous Solubility pH 6.5 (phosphate buffer pH 6.5, 1% DMSO, 24 hrs at room temperature): 46.0 mg/L

— patent publication US20230013419A1, “ANALOGUES OF 3-(5-METHYL-1,3-THIAZOL-2-YL)-N-{(1R)-1-[2-(TRIFLUORO-METHYL)PYRIMIDIN-5-YL]ETHYL}BENZAMIDE” (Bayer Aktiengesellschaft, priority 2019, published 2023)
